Reference: paper PMC11005723, “Development of Complementary Photo‐arginine/lysine to Promote Discovery of Arg/Lys hPTMs Interactomes” (Advanced Science, 2024)

Key:
HEK 293T nuclear lysate = test: Pull‐down by diazirine labeled peptides with western blot; assay type: binding, human; details: 10 µµ peptide probe, UV crosslinking, n = 2
Description: The protocol refers to SILAC‐based pull‐down assay with the following modifications. HEK293T cells were plated in normal DMEM medium and the protocol of nuclear lysate extraction is as same as SILAC‐based assay. After incubating and crosslinking with 10 µµ peptides probes, the whole protein in each group was precipitated and resolved in 1% SDS PBS buffer. Then peptides trapped protein was enriched with 50 µL high‐capacity streptavidin agarose resin separately. The enriched protein on beads were released in 4X Laemmli sample buffer by heating at 98 °C for 20 min. At last, the samples were run on a 4–12% bis‐tris SDS‐PAGE gel and analyzed by western blot. The assay was done two times to confirm results.

MSH6PWWP = test: In vitro MSH6PWWP domain photo‐labeling by probes; assay type: binding; details: probe 10 µM, MSH6PWWP 2 µM, 30 min 4 °C, 365 nm 20 min, streptavidin‐HRP blot; n = 2
Description: The samples were irradiated at 365 nm for 20 min. 4 × Laemmli sample buffer was added (final diluted to 1 ×) and heated at 98 °C for 5 min. The samples were run on a 4–12% bis‐tris SDS‐PAGE gel and analyzed by western blot (detected by Streptavidin (HRP) anti‐biotin).

Substance	proteins enriched in pull‐down (western blot) (HEK 293T nuclear lysate)	covalent labeling of MSH6PWWP domain (MSH6PWWP)
probe 1: H3 peptide probe, photo‐arginine at R2, unmodified K4, K(biotin)	RBBP4/7 were enriched	–
probe 2: H3 peptide probe, photo‐arginine at R2, K4me3, K(biotin)	SPIN1, ING2 and WDR5 were enriched	–
probe 4: H3R2me2a peptide probe with δ‐photo‐lysine at K4 and K(biotin)	–	more efficiently covalently labeled
